Source: US7816499B2, “Antibodies that selectively bind HDAC9” (Sloan-Kettering Institute for Cancer Research, priority 2001, dated 2010)

Chains of the proteins cited; added tags and fusions are not shown. Residues count along the entry.
UniProt Q9UKV0, 1-879 isoform Q9UKV0-4: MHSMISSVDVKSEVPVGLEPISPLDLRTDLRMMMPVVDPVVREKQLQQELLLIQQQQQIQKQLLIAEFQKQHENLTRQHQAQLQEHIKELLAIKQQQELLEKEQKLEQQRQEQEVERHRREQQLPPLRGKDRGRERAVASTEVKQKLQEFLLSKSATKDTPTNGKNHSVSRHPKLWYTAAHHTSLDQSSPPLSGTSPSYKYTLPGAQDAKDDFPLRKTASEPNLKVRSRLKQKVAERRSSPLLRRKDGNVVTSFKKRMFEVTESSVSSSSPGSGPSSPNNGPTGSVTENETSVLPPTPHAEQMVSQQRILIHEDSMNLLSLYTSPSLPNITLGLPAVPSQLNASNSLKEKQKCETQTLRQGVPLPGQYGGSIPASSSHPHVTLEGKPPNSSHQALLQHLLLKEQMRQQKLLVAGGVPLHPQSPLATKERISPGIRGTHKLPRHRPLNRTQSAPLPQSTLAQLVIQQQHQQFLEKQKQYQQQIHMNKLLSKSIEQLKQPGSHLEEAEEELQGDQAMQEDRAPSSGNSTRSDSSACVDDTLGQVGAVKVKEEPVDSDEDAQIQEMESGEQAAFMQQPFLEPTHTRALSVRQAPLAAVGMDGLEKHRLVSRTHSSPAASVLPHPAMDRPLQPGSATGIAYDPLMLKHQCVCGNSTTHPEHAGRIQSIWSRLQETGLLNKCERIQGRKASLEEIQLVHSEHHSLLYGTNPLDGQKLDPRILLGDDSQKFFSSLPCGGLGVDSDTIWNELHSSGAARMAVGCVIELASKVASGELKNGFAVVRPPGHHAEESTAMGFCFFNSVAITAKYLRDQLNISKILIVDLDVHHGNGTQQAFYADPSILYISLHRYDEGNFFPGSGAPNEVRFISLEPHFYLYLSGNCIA

Tests used:
[1] = biological target: HDAC9-FLAG (Homo sapiens, UniProt Q9UKV0); conditions: FLUOR DE LYS substrate; TSA 1 μM (FIG. 7), preincubated 15 minutes at room temperature; SAHA concentration not given
[2] = biological target: T1, HDAC9a-FLAG (Homo sapiens, UniProt Q9UKV0); conditions: FLUOR DE LYS substrate; TSA 1 μM (FIG. 7), preincubated 15 minutes at room temperature; SAHA concentration not given
[3] = biological target: T1, HDAC9a-FLAG; assay: HDAC enzymatic assay, 3H-acetic acid released from 3H-histones; type: biochemical; design: made in house; host or cells: human kidney 293T cells, transient transfection, anti-FLAG M2 agarose immunoprecipitation, elution with FLAG peptide; conditions: 3H-histones substrate; SAHA 2 μM (FIG. 8); preincubated 30 minutes at 4° C.
Experimental: The reaction was stopped by the addition of 1M HCl/0.1 acetic acid. Released ^3H-acetic acid was extracted with ethyl acetate and quantified by scintillation counting. For inhibition studies, the immunoprecipitated complexes were preincubated with the different HDAC inhibitors for 30 minutes at 4° C.

inhibition of HDAC9 deacetylase activity [1]: inhibited
inhibition of HDAC9a deacetylase activity [2]: inhibited
inhibition of histone deacetylase activity of HDAC9a-FLAG [3]: inhibited
SMILES: CC(/C=C/C(=O)NO)=C\[C@@H](C)C(=O)c1ccc(N(C)C)cc1 [TSA, trichostatin A]
